The chains behind the UniProt entries cited, without tags or fusion partners.
UniProt P61169, whole entry: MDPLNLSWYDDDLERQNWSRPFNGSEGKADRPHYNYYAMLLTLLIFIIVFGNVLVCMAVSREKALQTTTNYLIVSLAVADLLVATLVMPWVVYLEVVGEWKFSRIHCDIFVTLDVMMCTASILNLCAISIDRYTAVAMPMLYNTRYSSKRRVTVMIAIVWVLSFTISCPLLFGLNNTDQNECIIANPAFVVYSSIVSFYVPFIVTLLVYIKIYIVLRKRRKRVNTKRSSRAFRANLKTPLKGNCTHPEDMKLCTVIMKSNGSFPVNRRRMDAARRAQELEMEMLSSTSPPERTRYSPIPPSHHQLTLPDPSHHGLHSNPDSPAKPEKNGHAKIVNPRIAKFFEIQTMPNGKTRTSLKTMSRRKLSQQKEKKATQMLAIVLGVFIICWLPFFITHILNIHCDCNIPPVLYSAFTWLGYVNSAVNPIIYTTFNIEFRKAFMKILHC
UniProt P19327, whole entry: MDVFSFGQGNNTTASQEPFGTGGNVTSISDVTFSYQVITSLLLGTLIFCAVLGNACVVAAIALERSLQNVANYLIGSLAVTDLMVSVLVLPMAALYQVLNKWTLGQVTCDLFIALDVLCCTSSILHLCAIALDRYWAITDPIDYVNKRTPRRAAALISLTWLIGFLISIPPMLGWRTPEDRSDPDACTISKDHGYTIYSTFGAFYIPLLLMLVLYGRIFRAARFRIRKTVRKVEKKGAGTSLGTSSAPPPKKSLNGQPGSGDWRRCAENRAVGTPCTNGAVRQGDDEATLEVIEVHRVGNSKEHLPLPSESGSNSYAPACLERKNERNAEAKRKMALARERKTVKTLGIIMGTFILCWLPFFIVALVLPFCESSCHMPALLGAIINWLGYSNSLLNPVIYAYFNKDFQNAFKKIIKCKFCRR

In ChEMBL document CHEMBL1129432, “Structure-activity relationships of a series of novel (piperazinylbutyl)thiazolidinone antipsychotic agents related to 3-[4-[4-(6-fluorobenzo[b]thien-3-yl)-1-piperazinyl]butyl]-2,5,5- trimethyl-4-thiazolidinone maleate” (J Med Chem, 1996):

Key:
D(2) dopamine receptor = D(2) dopamine receptor (Rattus norvegicus, UniProt P61169); assay: Binding affinity towards Dopamine receptor D2 was determined in rat striatum using [3H]- spiperone as radioligand; type: tissue-based
[1] = molecular target: 5-hydroxytryptamine receptor 1A (Rattus norvegicus, UniProt P19327); assay: Binding affinity towards serotonin 5-HT1A receptor was determined in rat hippocampus using [3H]8-OH-DPAT as ligand; type: tissue-based

IC50 (D(2) dopamine receptor) [nM]	IC50 [1] [nM]	SMILES
12900	–	O=C1CSCN1CCCCN1CCN(c2ccc(F)cc2)CC1
286	324	CC1SC(C)(C)C(=O)N1CCCCN1CCN(c2nsc3cc(Cl)ccc23)CC1 (stereo not given)
786	–	COc1ccccc1N1CCN(CCCCN2CSC(C)C2=O)CC1 (stereo not given)
2640	–	Cc1cccc(N2CCN(CCCCN3CSC(C)(C)C3=O)CC2)c1
